The values that follow come from ChEMBL document CHEMBL1142040, “Melanocortin subtype-4 receptor agonists containing a piperazine core with substituted aryl sulfonamides” (Bioorg Med Chem Lett, 2005).

Protein sequences, listed by entry. Tags and fused reporters are not part of them. Lines headed by an entry give the natural chain unless they say otherwise; changes in a name come on top.
UniProt P32245, whole entry, looked up: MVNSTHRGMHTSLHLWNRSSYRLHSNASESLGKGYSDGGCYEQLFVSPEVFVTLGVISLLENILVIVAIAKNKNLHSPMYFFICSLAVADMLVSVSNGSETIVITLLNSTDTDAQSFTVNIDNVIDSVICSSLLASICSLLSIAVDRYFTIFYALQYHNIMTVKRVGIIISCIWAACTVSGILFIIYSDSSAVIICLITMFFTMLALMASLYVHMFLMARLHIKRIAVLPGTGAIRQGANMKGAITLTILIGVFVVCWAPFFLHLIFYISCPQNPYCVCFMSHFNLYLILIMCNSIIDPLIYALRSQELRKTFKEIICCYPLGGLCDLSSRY
UniProt P33032: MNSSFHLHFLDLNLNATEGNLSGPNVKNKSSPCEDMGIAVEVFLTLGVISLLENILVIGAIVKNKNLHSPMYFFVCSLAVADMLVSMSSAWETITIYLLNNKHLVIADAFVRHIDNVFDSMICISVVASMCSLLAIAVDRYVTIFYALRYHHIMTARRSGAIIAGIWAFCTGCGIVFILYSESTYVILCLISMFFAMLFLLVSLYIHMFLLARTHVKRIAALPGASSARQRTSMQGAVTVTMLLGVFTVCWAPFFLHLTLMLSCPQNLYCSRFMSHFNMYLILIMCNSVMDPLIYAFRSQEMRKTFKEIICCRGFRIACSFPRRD

For the test, the target named is Melanocortin receptor (M4 and M5) (Homo sapiens) (UniProt P32245+P33032). In words: Selectivity for melanocortin 4 receptor compared to melanocortin 5 receptor in vitro. The test is classed as functional.

For the compound `CCCN(c1ccccc1N1CCN(C(=O)[C@@H](Cc2ccc(Cl)cc2)NC(=O)[C@@H]2Cc3ccccc3CN2)CC1)S(C)(=O)=O`, the Selectivity was 490.
